Experimental data: US20130345254A1, “CYCLOHEXANE SUBSTITUTED AMINO CYCLOPENTANE DERIVATIVES AS USEFUL CCR2 ANTAGONISTS” (priority 2011, published 2013)

Protein sequences, listed by entry. Tags and fused reporters are not part of them.
UniProt P41597, whole entry: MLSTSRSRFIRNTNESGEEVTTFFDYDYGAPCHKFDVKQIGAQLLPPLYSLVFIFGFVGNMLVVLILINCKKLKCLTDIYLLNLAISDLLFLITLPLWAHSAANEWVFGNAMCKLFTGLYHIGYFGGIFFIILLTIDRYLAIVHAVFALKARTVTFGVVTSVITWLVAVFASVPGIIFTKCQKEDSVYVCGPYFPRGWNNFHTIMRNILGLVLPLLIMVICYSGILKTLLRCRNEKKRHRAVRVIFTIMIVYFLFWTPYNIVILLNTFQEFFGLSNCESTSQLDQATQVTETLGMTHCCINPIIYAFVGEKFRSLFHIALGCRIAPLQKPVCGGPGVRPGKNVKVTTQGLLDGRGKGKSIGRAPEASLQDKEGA

Biological target: human CCR2 (Homo sapiens, UniProt P41597)
Assay: CCR2 membrane binding assay (SPA, 125I-rhMCP-1 competition)
Details: membranes from Ba/F3 cells transfected with human CCR2; 0.03 nM 125I-rhMCP-1; 4 h room temperature
Method: The radio-ligand binding assay was done using scintillation proximity assay (SPA) technology. Briefly, membranes (1 μg per assay point) from Ba/F3 cells transfected with human CCR2, and wheat germ agglutinin-coated SPA beads (80 μg per point; Amersham, Arlington Heights, Ill.), were pre-incubated for 30 min at room temperature in CCR2 buffer (50 mM HEPES (pH=7.4), 10 mM MgCl2, 10 mM NaCl, 1 mM CaCL2, 0.1% BSA, 10 μg/ml Saponin). At this point pre-bound SPA bead, membrane complex was incubated at room temperature for 4 h with varying concentrations of punitive CCR2 antagonists (in 1% DMSO, final) and 0.03 nM ^125I-rhMCP-1 in CCR2 Buffer (S.A. 2200 Ci/mmol, PerkinElmer Life and Analytical Science, Boston, Mass.; NEX332). Binding competition was measured using a 1450 Microbeta Trilux counter (Wallac, Gaithersburg, Md.). Binding constants (IC50 and slope) were calculated using GraphPad Prism software (GraphPad Software, Inc., La Jolla Calif.).

Structure (SMILES): CC(C)[C@]1(C(=O)N2CCc3ncc(C(F)(F)F)cc3C2)CC[C@@H](NC2CCC(=Cc3ccccc3)CC2)C1 (some centres unmarked)
- IC50: 18 nM

Structure (SMILES): O=C(NCc1cc(C(F)(F)F)cc(C(F)(F)F)c1)[C@H]1CC[C@@H](NC2CCC(=Cc3ccccc3)CC2)C1 (some centres unmarked)
- IC50: 3450 nM
